ChEMBL document CHEMBL1121558, “Studies on several 7-substituted N,N-dimethyltryptamines” (J Med Chem, 1980)

Biological target: Serotonin (5-HT) receptor
Assay: Compound was evaluated for binding affinity towards 5-hydroxytryptamine receptor in isolated rat fundus preparation measured as pA2

CN(C)CCc1c[nH]c2ccccc12 [N,N-DIMETHYLTRYPTAMINE]
pA2: 6
